Experimental data from the Kinase Knowledgebase extract (Sharma et al. 2016).

Chains of the proteins cited; added tags and fusions are not shown. Lines headed by an entry give the natural chain unless they say otherwise; changes in a name come on top.
UniProt P42338: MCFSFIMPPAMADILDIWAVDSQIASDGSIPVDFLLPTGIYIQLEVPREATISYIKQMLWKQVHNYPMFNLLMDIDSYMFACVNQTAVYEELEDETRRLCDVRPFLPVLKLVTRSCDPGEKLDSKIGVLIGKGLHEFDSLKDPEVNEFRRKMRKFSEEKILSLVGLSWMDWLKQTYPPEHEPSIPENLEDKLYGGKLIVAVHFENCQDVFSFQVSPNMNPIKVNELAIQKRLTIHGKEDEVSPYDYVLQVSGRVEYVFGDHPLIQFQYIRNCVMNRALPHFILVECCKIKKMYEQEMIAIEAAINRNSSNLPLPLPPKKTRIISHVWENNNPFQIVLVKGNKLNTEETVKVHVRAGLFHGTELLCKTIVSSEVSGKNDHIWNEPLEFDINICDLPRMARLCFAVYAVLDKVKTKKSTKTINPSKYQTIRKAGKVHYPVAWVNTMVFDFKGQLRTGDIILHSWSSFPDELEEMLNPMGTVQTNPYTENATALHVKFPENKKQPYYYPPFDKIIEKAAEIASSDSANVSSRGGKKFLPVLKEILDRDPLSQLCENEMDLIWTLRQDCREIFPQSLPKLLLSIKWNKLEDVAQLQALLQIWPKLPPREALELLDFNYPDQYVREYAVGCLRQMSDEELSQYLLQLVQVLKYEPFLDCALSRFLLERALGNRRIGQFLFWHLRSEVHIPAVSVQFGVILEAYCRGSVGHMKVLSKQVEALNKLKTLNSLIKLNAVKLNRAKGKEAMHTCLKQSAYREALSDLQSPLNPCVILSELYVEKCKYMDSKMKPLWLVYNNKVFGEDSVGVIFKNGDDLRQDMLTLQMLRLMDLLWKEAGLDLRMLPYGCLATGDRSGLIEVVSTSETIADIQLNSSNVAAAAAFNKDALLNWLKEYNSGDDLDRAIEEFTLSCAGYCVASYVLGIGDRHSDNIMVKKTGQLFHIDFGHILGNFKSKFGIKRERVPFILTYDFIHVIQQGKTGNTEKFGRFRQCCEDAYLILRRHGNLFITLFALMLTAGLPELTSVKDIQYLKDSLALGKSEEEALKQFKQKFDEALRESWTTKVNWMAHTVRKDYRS

Target: PIK3CB (Human) (UniProt P42338)
Experiment: Enzyme Assay

| Structure (SMILES) | IC50 [µM] |
| --- | --- |
| Cc1cc(C(C)Nc2ccccc2)c2nc(N3CCOCC3)cc(=O)n2c1 (configuration not stated) | 0.005 |
| O=c1cc(N2CCOCC2)oc2c(-c3ccccc3)cccc12 | 11 |
